Patent publication US11987642B2, “Bispecific HER2 and CD3 binding molecules” (MEMORIAL SLOAN KETTERING CANCER CENTER, priority 2014, dated 2024)

Tests used:
SCCHN cell line PCI-30 = test: Proliferation assay (WST-8), PCI-30; format: cell-based, human
Experimental: (§1) Cell proliferation was determined using an ELISA plate reader and the WST-8 kit (Dojindo technologies) following the manufacturer's instructions and using the formula: % survival rate=(Sample-Background)/(Negative control-Background). Lapatinib (MSKCC pharmacy) was ground using a mortar and pestle and suspended in DMSO as previously described. To determine statistical significance, the results were analyzed using one-way ANOVA using Prism 6.0.

U2OS osteosarcoma cells = test: Proliferation assay (WST-8), U2OS; format: cell-based, human
Experimental: as §1
U2OS cells are a HER2-positive, EGFR-positive osteosarcoma cell line (FIG. 11A).

[1] = system: HeLa cervical carcinoma cells; test: Proliferation assay (WST-8), HeLa; format: cell-based, human
Experimental: as §1
HeLa cells are a HER2-positive, EGFR-positive cervical carcinoma cell line (FIG. 12A).

[2] = system: HER2-positive breast carcinoma cell line, AU565; test: FACS binding to tumor cells; format: cell-based, human; settings: trastuzumab vs HER2-BsAb
MCF7 breast cancer cells = test: Subcutaneous MCF7 xenograft mixed with PBMC; format: in vivo, DKO mice
[3] = system: HCC1954 breast cancer cells; test: Subcutaneous HCC1954 xenograft mixed with subcutaneous PBMC; format: in vivo, DKO mice

| Substance | sensitivity of cells in proliferation assay (SCCHN cell line PCI-30) | sensitivity of cells in proliferation assay (U2OS osteosarcoma cells) | sensitivity of cells in proliferation assay [1] | binding to AU565 cells [2] | tumor progression (MCF7 breast cancer cells) | tumor progression / tumor growth [3] |
| --- | --- | --- | --- | --- | --- | --- |
| cetuximab | resistant | resistant | pan-resistant | – | – | – |
| trastuzumab | resistant | resistant | pan-resistant | comparable binding | ineffective | no effect |
